Values quoted from earlier work as cited in patent publication US20250313640A1, “INHIBITION OF CSF-1 or CSF-1R FOR THE TREATMENT OF MINIMAL RESIDUAL DISEASE” (BOARD OF REGENTS, THE UNIVERSITY OF TEXAS SYSTEM, priority 2024, published 2025).

Test system: TGCT

Emactuzumab: clinical stage humanized IgG1 CSF1R targeted antibody; heavy chain SEQ ID NO: 20, light chain SEQ ID NO: 21
safety profile in patients: favorable safety profile | efficacy for TGCT (patients): encouraging efficacy
